Experimental data published in PMC11024197 (2024).

Assays:
Test in all cases: ITC
[1] = biological target: T1, PEX5_W1 (Homo sapiens (Human), UniProt P50542)
T1 chain: ALSENWAQEFLAAGD

[2] = biological target: T2, PEX5_W6 (Homo sapiens (Human), UniProt P50542)
T2 chain: GTSDAWVDQFTRPVN

[3] = biological target: PEX5_W0 (Homo sapiens (Human), UniProt P50542)
[4] = biological target: T3, PEX5_W5 (Homo sapiens (Human), UniProt P50542)
T3 chain: AQAEQWAAEFIQQQG

[5] = biological target: T4, PEX5_W7 (Homo sapiens (Human), UniProt P50542)
T4 chain: AEAHPWLSDYDDLTS

Kd [1]: > 110 µM
Kd [2]: > 110 µM
Kd [3]: > 110 µM
Kd [4]: > 110 µM
Kd [5]: > 110 µM
B1: PEX13 (protein)
chain: VTDSINWASGEDDHVVARAEYDFAAVSEEEISFRAGDMLNLALKEQQPKVRGWLLASLDGQTTGLIPANYVKILGKRKGRKTVESS
